For this experiment, the target named is T1, Adenosine receptor A2b (Homo sapiens) (UniProt P29275).
T1 sequence (whole entry): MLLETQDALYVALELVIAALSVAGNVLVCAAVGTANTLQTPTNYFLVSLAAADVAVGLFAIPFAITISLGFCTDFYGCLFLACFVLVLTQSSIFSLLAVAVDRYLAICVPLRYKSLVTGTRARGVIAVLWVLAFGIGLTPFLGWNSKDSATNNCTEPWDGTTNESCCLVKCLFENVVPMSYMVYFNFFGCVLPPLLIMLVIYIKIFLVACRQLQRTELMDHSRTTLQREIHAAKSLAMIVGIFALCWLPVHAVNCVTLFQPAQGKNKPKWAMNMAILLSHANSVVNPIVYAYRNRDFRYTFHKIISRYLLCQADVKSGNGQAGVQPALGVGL
In words: Antagonist activity at human recombinant A2B receptor expressed in human HEK293 cells assessed as inhibition of NECA-stimulated cAMP production pre-incubated for 15 mins before NECA stimulation for 15 mins by cAMP enzyme immunoassay. The format is functional, cell-based. For orientation: cAMP levels reflect the balance of adenylyl cyclase and phosphodiesterase activity.

As for `CC1=C(C(=O)OCC(F)(F)F)C(c2ccco2)n2c(nc3ccccc32)N1` (racemic), the Kb (commonly the equilibrium dissociation constant of an antagonist, usually derived from a functional assay) was determined as 83.2 nM.

On to `CC1=C(C(=O)OC(C)C(F)(F)F)C(c2ccco2)n2c(nc3ccccc32)N1` (racemic), for which the antagonist dissociation constant (Kb) stood at 106 nM.

`CCOC(=O)C1=C(C(F)(F)F)Nc2nc3ccccc3n2C1c1ccoc1` (racemic): the Kb came out at 79.4 nM.

These data come from ChEMBL document CHEMBL4414598, “Trifluorinated Pyrimidine-Based A2B Antagonists: Optimization and Evidence of Stereospecific Recognition” (J Med Chem, 2019).
